For assay [1], the target named is cation-independent mannose-6-phosphate receptor (CIMPR). The assay is described as follows: CIMPR affinity column, same condition as for Myozyme and Lumizyme (FIG. 5).
Assay [2] has as its target cellular receptors of normal and Pompe fibroblast cell lines. As to the kind of experiment: cell-based or functional assay.
Assay [3] addresses cation-independent mannose-6-phosphate receptor (CIMPR). As to the kind of experiment: CIMPR affinity chromatography, different production batches (FIG. 5).
For assay [4] the target is unchanged. The assay is described as follows: M6P receptor (CIMPR) plate binding assay.
Assay [5] has the same target. The assay is described as follows: CIMPR affinity column, flow through against M6P-eluted fraction by GAA activity.

Where only a bound is given, the exact number is not on record here.

Take “ATB200 recombinant human acid α-glucosidase (rhGAA) produced from CHO cell line GA-ATB200 (from UniProt P10253 57-952) (enzyme)”: the percent of rhGAA bound to CIMPR in assay [1] and in assay [3] was greater than 70% in each case. The same substance came in with a concentration that saturates cellular receptors (fibroblast uptake) in assay [2] of 20 nM. In addition, in assay [4], the equilibrium dissociation constant (Kd) is 2 to 4 nM.

In assay [5], “Lumizyme® (alglucosidase alfa), conventional rhGAA product (from UniProt P10253 57-952) (enzyme)” gave a percent of rhGAA bound to CIMPR (M6P-bearing fraction) of 22% and a percent of rhGAA not bound to CIMPR of 78%. In assay [2], this substance yielded a concentration that saturates cellular receptors (fibroblast uptake) of 250 nM and an uptake efficiency constant (Kuptake), internalised GAA activity in fibroblasts after 16 h of 56 nM.

On to “Myozyme® (alglucosidase alfa), conventional rhGAA product (from UniProt P10253 57-952) (enzyme)”, for which, in assay [5], the percent of rhGAA bound to CIMPR (M6P-bearing fraction) came to 27% and the percent of rhGAA not bound to CIMPR was 73%.

(Values after patent US20250057925A1.)
